Results on one molecule are retold here after ChEMBL document CHEMBL1155432 (Bioorg Med Chem Lett, 2010).

The assay has as its target T1, Macrophage migration inhibitory factor (Homo sapiens, UniProt P14174).
T1 sequence (P14174 whole entry): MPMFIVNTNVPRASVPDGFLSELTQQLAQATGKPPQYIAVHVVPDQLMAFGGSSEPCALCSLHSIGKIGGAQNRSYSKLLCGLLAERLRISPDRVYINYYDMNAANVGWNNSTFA
In words: Inhibition of MIF.

As usually defined, the IC50 is the concentration needed to halve the response being measured. Lower therefore signals higher potency. The molecule `O=c1c(-c2ccc(O)c(O)c2)coc2ccccc12` came in with a half-maximal inhibitory concentration (IC50) of 38 nM.
